What is called pIC50 is the IC50 on a negative log10 scale, so that one unit is a factor of ten.

The chains behind the UniProt entries cited, without tags or fusion partners. Residues count along the entry.
UniProt P25774, 115-331 limits assumed: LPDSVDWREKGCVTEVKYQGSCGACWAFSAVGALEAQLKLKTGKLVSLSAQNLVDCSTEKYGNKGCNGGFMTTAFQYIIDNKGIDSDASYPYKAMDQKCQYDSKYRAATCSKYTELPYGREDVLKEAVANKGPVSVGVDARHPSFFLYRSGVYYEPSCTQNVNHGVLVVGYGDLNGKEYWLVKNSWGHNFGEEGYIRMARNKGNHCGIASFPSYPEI

The values that follow come from BindingDB's records for US10172843.

pIC50: −log10 of the molar value.

This assay deals with Cathepsin S (Homo sapiens, UniProt P25774). Put plainly: Cathepsin Enzyme Inhibition Assay. The procedure: Enzyme activity is measured by observing the increase in fluorescence intensity caused by cleavage of a peptide substrate containing a fluorophore whose emission is quenched in the intact peptide.Assay buffer: 100 mM potassium phosphate pH 6.5, EDTA-Na 5 mM, Triton X-100 0.001%, DTT 5 mM.Enzymes (all at 1 nM): human and mouse Cathepsin S,
`Cc1[nH]c(-c2ccc(S(C)(=O)=O)cc2)nc1CN1CCC(n2c(=O)n(C)c3ccccc32)CC1` showed a pIC50 of 6.76. Regarding `Cc1sc(-c2ccc(C(F)(F)F)cc2)nc1CN1CCC(n2c(=O)n(C)c3ccccc32)CC1`, the negative-log IC50 (pIC50) is 5.69. The result for `Cn1nc(-c2ccc(C(F)(F)F)cc2)nc1CN1CCC(n2c(=O)n(C)c3ccccc32)CC1` reads 6.23; that for `Cc1[nH]c(-c2ccc(Cl)cc2)nc1CN1CCC(n2c(=O)[nH]c3cc(Cl)ccc32)CC1`, 5.99. The value for `Cn1nc(CN2CCC(n3c(=O)n(C)c4ccccc43)CC2)nc1-c1ccc(C(F)(F)F)cc1` was 5.86; that for `Cc1cn(-c2ccc(C(F)(F)F)cc2)nc1CN1CCC(n2c(=O)n(C)c3ccccc32)CC1` was 5.78.
